# In patent US20260041706A1, “MUCUS MEMBRANE FORMULATIONS AND USES THEREOF” (priority 2022, published 2026):
# Experiment: In vivo biodistribution and nasal residence (DiR fluorescence, IVIS)
Substance,fluorescence signal in nasal cavity (in words) (even at 15 min after administration),"nasal residence of gellan and pectin mixture on addition of surfactant (8 h post-nasal administration, DiR-loaded)"
"1, 1′-Dioctadecyl-3,3,3′,3′-Tetramethylindotricarbocyanine Iodide [Free DiR, reference compound]",negligible fluorescence signal,–
sorbitan monolaurate [Span-20],–,significantly enhanced the nasal residence
